The values that follow are results of earlier work, collected in patent US12344584B2, “KCNQ potentiators” (Eli Lilly and Company, priority 2019, dated 2025).

For this series, the system named is ALS. The note with it: ALS patients; cited from earlier work.

On to `Nc1nc2ccc(OC(F)(F)F)cc2s1` [riluzole], for which the increase in survival is on record as 2-3 months.
